Source: ChEMBL document CHEMBL1136016, “Synthesis, biological activity, and molecular modeling investigation of new pyrazolo[4,3-e]-1,2,4-triazolo[1,5-c]pyrimidine derivatives as human A(3) adenosine receptor antagonists” (J Med Chem, 2002)

Protein sequences, listed by entry. Tags and fused reporters are not part of them. Lines headed by an entry give the natural chain unless they say otherwise; changes in a name come on top.
UniProt P30542, whole entry, looked up: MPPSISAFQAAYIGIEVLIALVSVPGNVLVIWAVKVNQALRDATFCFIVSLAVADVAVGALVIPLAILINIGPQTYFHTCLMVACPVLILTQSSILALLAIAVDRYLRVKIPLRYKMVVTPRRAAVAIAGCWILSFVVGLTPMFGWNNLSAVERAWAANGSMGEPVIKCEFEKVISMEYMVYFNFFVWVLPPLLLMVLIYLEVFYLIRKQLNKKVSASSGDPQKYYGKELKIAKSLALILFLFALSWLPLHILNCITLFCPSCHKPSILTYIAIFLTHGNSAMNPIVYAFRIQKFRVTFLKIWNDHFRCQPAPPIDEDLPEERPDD
UniProt P0DMS8, whole entry, looked up: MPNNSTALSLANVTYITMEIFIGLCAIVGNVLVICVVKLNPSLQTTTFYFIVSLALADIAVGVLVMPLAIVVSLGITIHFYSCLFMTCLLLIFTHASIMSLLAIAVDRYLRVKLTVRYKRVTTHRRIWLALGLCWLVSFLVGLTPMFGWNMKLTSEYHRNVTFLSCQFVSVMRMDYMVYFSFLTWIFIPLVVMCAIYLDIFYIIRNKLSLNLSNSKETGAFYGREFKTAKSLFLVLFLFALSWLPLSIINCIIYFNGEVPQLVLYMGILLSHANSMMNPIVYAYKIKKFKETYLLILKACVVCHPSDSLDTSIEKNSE
UniProt P29275: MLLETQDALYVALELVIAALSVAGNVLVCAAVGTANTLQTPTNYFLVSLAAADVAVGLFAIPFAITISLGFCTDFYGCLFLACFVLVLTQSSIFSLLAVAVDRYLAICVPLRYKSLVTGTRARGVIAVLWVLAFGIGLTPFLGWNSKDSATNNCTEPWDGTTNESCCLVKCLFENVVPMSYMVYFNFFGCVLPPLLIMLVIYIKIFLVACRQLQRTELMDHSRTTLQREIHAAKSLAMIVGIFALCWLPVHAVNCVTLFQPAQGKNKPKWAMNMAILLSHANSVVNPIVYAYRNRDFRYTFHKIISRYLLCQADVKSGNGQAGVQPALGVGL

Legend:
[1] = target: Adenosine receptors; A1 & A3 (Homo sapiens) (UniProt P30542+P0DMS8); assay: Selectivity ratio (hA1/hA3); type: protein assay
[2] = target: Adenosine receptors; A2b & A3 (Homo sapiens) (UniProt P29275+P0DMS8); assay: Selectivity ratio (h2B/hA3); type: protein assay

Compound: CCCn1cc2c(nc(NC(=O)Nc3ccc(OC)cc3)n3nc(-c4ccco4)nc23)n1
- Ratio [1]: 1500
- Ratio [2]: 2570
